This is a selection; strong and weak results do not stand in their true shares. The source made the active and inactive calls.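 How the source made its calls: active means inhibition exceeding 3 SD of buffer-only control wells (cut at about 26% in these data); inactive means the rest.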
Assay: M3R calcium signalling without RGS4 expression – cell-based, HEK293 M3R, non-induced RGS4, Fluo-4 calcium, counter-screen for RGS4 activator project, primary screen (AID 602283);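 further: percent drop in integrated peak-minus-baseline over baseline Fluo4 ratio after carbachol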
Details: HEK293 M3R non-induced RGS4, Fluo4 calcium flux; at 10 µM; active compounds read high; after carbachol challenge at its EC90

Compound | inhibition
O=C(OC1CN2CCC1CC2)C12CC3CC(CC(C3)C1)C2 (stereo not given) | active: 94.3%
CN(C(=O)Cc1ccccc1)[C@@H]1CC[C@]2(CCCO2)C[C@H]1N1CCCC1 | inactive: 0%
O=C(OC1CN2CCC1CC2)c1ccc(Cl)cc1 (stereo not given) | active: 83.8%
O=C(OC1CN2CCC1CC2)c1cccc(Cl)c1 (stereo not given) | active: 29.8%
CN1CCCC(OC(=O)C(c2ccccc2)c2ccccc2)C1 (stereo not given) | active: 72.8%

Source: PubChem BioAssay AID602283 (Johns Hopkins Ion Channel Center, 2012)
